Source: ChEMBL document CHEMBL4177750, “Imidazopyrazinones (IPYs): Non-Quinolone Bacterial Topoisomerase Inhibitors Showing Partial Cross-Resistance with Quinolones” (J Med Chem, 2018)

Sequences of proteins named here, by UniProt entry; tags and fusion partners are left off.
UniProt P0AES4, whole entry, looked up: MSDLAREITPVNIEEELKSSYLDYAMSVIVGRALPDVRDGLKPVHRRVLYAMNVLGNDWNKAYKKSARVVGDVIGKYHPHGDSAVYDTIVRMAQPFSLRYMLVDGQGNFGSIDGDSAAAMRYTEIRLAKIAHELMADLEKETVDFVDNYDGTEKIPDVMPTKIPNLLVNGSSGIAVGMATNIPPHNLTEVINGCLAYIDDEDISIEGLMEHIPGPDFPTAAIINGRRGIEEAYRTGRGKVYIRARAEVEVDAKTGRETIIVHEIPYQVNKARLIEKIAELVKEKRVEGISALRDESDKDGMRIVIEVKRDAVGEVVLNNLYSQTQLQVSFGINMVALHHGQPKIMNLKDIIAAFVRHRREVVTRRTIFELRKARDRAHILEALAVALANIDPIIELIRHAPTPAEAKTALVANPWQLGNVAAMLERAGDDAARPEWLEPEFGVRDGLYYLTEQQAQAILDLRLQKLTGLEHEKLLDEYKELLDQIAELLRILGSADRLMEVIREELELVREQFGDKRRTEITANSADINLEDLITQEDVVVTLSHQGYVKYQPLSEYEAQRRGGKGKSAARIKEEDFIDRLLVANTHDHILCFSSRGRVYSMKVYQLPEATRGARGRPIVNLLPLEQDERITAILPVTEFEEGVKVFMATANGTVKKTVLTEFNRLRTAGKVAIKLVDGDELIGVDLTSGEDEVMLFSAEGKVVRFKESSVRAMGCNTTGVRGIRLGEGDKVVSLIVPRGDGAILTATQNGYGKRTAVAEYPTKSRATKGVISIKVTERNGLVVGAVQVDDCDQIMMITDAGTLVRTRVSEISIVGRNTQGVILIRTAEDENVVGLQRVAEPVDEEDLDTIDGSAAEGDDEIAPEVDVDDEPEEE

Biological target: DNA gyrase (Escherichia coli, UniProt P0AES4+P0AES6)

O=c1c2nccn2c2cc(F)c(-c3ccncc3)cc2n1C1CC1
IC50: 2.5 µM
